Data on one molecule can be found in US20230050653A1, “ROCK INHIBITOR AND PREPARATION METHOD THEREFOR AND USE THEREOF” (WUHAN LL SCIENCE AND TECHNOLOGY DEVELOPMENT CO., LTD., priority 2019, published 2023).

Chains of the proteins cited; added tags and fusions are not shown.
UniProt Q13464, whole entry: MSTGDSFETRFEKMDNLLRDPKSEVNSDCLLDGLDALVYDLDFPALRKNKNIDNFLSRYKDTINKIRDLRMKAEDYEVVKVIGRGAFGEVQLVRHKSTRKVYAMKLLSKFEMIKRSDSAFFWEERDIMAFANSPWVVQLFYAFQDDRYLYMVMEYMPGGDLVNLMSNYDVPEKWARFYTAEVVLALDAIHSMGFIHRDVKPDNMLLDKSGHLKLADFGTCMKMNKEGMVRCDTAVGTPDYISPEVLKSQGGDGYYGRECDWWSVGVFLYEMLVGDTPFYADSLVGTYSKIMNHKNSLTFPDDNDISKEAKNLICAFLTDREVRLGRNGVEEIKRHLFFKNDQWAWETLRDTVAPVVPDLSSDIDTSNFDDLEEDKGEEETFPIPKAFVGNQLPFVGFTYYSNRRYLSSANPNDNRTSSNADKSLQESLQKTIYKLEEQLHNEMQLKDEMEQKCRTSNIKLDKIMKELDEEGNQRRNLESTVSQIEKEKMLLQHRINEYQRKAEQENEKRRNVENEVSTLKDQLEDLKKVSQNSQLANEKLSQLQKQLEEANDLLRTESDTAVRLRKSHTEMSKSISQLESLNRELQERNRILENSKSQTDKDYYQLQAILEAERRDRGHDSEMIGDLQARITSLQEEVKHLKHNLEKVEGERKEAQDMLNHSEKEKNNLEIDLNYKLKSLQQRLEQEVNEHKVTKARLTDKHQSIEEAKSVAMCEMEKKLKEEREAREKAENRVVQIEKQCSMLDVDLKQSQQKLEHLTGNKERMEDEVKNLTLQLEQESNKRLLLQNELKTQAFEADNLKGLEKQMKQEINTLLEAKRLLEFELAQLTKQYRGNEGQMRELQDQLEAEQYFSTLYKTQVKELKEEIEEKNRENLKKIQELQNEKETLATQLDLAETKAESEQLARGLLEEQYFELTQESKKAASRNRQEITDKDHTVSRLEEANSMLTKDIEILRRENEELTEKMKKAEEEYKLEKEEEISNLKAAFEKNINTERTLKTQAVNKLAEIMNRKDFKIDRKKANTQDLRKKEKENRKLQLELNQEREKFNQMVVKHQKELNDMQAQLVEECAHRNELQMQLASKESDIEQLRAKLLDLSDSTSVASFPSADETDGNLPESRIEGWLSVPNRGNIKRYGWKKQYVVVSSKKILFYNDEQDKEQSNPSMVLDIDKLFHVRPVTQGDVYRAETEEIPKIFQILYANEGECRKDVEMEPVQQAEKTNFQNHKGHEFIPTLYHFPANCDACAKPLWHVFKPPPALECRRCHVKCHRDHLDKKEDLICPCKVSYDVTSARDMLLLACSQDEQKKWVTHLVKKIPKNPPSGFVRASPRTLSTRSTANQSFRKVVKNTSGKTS
UniProt O75116, whole entry: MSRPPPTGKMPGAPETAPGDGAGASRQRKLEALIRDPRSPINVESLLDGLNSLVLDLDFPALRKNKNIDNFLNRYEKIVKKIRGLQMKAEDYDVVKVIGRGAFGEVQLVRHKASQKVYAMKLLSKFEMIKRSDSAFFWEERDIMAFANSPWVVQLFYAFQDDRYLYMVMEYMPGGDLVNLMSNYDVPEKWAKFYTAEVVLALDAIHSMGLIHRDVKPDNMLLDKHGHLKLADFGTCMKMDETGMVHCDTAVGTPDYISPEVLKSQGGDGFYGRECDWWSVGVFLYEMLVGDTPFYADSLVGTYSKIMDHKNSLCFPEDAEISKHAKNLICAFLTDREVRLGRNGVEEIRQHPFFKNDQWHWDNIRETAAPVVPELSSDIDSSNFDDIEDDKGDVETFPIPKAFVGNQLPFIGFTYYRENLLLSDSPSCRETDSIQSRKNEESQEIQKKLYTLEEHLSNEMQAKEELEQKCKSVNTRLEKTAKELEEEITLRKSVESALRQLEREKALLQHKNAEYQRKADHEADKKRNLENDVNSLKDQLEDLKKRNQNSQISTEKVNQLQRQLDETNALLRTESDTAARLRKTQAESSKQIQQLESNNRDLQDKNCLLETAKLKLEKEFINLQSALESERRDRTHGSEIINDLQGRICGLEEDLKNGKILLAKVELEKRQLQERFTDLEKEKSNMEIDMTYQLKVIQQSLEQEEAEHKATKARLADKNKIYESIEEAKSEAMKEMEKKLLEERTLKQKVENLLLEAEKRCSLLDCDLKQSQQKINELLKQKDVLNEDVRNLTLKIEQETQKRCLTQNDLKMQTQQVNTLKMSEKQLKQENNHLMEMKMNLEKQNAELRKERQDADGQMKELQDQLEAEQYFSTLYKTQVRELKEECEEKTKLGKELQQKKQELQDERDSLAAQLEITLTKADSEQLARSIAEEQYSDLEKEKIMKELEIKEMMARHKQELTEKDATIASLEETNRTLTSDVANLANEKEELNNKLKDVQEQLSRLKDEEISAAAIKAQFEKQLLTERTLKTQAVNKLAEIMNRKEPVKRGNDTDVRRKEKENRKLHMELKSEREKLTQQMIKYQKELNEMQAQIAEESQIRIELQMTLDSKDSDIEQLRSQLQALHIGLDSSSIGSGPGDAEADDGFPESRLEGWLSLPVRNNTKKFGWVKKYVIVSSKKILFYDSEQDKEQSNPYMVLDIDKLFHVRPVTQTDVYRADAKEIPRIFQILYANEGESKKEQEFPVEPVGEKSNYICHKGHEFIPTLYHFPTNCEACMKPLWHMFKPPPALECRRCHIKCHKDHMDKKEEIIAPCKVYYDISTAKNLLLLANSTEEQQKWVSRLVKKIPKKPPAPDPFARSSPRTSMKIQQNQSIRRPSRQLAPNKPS

Each structure is given as a SMILES string.

One assay concerns the target ROCK1 kinase (Homo sapiens, UniProt Q13464). In words: In vitro evaluation of ROCK1 kinase selectivity (HTRF KinEASE-STK time-resolved fluorometric assay). The following applies: read-out: IC50 for ROCK1. In kind it is biochemical. Here is the method:
ROCK1 activity was detected using a 96-well (Cisbio) time-resolved fluorometric assay. The assay for ROCK1 was performed in the following assay buffer: 5 mM MgCl2 (Sigma), 1 mM DTT (Sigma) and 1× kinase buffer. The kinase buffer was used for dilution. 7.5 μL of ROCK1 kinase (Invitrogen) was added to a 96-well microplate to reach a final concentration of 0.4 ng/μL, and then 0.25 μL of test compound (DMSO content: 1%) was added. The mixture was incubated at room temperature for 0.5 h. To start the reaction, the kinase buffer was also used to mix ATP (Aladdin) and the substrate STK-substrate 2-biotin. 7.5 μL of the mixed solution was added to the microplate to reach final concentrations of 3.53 μM and 1 μM. The resulting mixture was incubated for 2 h at room temperature. […] was mixed with STK antibody-Cryptate, and then an appropriate volume of the mixture was mixed with an equal volume of streptavidin-XL665. 10 μL of the resulting mixture was added to stop the reaction. After further incubation for about 1 h, the microplate was read on a Molecular Devices SpectraMax i3x multifunctional microplate reader. The kinase buffer, the STK-substrate 2-biotin, the detection buffer, the STK antibody-Cryptate, and the streptavidin-XL665 were all from HTRF KinEASE-STK kit (Cisbio, 1000 tests, 61[…]). […]

The target of another assay is ROCK2 kinase (Homo sapiens, UniProt O75116). In words: In vitro evaluation of ROCK2 kinase activity (HTRF KinEASE-STK time-resolved fluorometric assay). The settings on record: read-out: IC50 for ROCK2. In kind it is biochemical. Here is the method:
ROCK2 activity screening. ROCK2 activity was detected using a 96-well (Cisbio) time-resolved fluorometric assay. The assay for ROCK2 was performed in the following assay buffer: 5 mM MgCl2 (Sigma), 1 mM DTT (Sigma) and 1× kinase buffer. The kinase buffer was used for dilution. 7.5 μL of ROCK2 kinase (Invitrogen, PV3759) was added to a 96-well microplate to reach a final concentration of 0.4 ng/μL, and then 0.25 μL of test compound (DMSO content: 1% (volume fraction)) was added. The mixture was incubated at room temperature for 0.5 h. To start the reaction, the kinase buffer was used to mix ATP (Aladdin) and the substrate STK-substrate 2-biotin. 7.5 μL of the mixed solution was added to the microplate to reach final concentrations of 6.739 μM and 1 μM. The resulting mixture was incubated for 2 h at room temperature. 5 mL of detection buffer was mixed with STK antibody-Cryptate, and then an appropriate volume of the mixture was mixed with an equal volume of streptavidin-XL665. 10 μL of the resulting mixture was added to the microplate to stop the reaction. After further incubation for about 1 h, the microplate was read on a Molecular Devices SpectraMax i3x multifunctional microplate reader. The kinase buffer, the STK-substrate 2-biotin, the detection buffer, the STK antibody-Cryptate, and the streptavidin-XL665 were all from HTRF KinEASE-STK kit (Cisbio, 1000 tests, 61[…]). […]

Take `COc1cc(F)cc(CNC(=O)c2noc3cc(-c4cn[nH]c4)ccc23)c1`: the half-maximal inhibitory concentration (IC50) on ROCK1 kinase and at ROCK2 kinase was below 50 nM in each case.
